Like-named read-outs stand apart in the source and are kept apart here.
Assays:
Bovine type 1 trypsin = Bovine type 1 trypsin (Bos taurus, UniProt P00760); test: Trypsin-catalyzed hydrolysis of chromogenic substrate Spectrozyme TRY (in vitro enzyme assay); format: biochemical; conditions: read-out: Trp IC50, 3.2 U/ml trypsin, 0.1-0.3 mM Spectrozyme TRY
human alpha-thrombin = human alpha-thrombin (Homo sapiens, UniProt P00734); test: Thrombin-catalyzed hydrolysis of chromogenic substrate Spectozyme TH (in vitro enzyme assay); format: biochemical; conditions: read-out: Thr IC50, 1 nM thrombin, 50 μM Spectozyme TH, 37° C., pH 7.4
[1] = Ex vivo i.v. assay for duration of action: time to half plasma elimination from thrombin inhibition in rat plasma; conditions: male Long Evans rats, i.v. via femoral vein, from slope of Vo vs. time; tested form: TFA

Chains of the proteins cited; added tags and fusions are not shown. Residues count along the entry.
UniProt P00760, 24-246 limits assumed: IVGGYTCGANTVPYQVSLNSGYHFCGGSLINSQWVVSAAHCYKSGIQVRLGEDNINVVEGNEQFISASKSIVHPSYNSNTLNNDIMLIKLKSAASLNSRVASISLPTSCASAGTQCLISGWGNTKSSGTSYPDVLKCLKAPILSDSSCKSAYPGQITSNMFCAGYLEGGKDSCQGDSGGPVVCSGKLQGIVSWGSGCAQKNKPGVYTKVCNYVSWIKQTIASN

Row | SMILES | IC50 (Bovine type 1 trypsin; tested form: TFA) [µM] | IC50 (human alpha-thrombin; tested form: TFA) [µM] | other results
1 | CN[C@H](Cc1ccccc1)C(=O)N1CCC[C@H]1C(=O)N[C@@H](CCCOC)C(=O)c1nc2ccccc2s1 | 7.44 | 45.5 | 
2 | CN[C@H](Cc1ccccc1)C(=O)N[C@H](C(=O)N[C@@H](CCCNC(=N)N)C(=O)c1nc2ccccc2s1)C(C)C | 0.002 | 0.2 | 
3 | N=C(N)NCCCC(NC(=O)[C@@H]1CCCN1C(=O)CC(c1ccccc1)c1ccccc1)C(=O)c1nc2ccccc2s1 (stereo partly drawn) |  |  | t1/2 (time to half plasma elimination) [1]: 6 min
4 | CN[C@H](Cc1ccccc1)C(=O)N1CCC[C@H]1C(=O)N[C@@H](CCCNC(=N)N)C(=O)c1nc2ccccc2n1C |  |  | IC50 (Bovine type 1 trypsin; tested form: oxalate): 1.2 µM; IC50 (human alpha-thrombin; tested form: oxalate): 0.111 µM
5 | CN[C@H](Cc1ccccc1)C(=O)N1CCC[C@H]1C(=O)N[C@@H](CCCNC(=N)N)C(=O)c1nc2ccccc2o1 | 0.28 |  | 
6 | CN[C@H](Cc1ccccc1)C(=O)N1CCC[C@H]1C(=O)N[C@@H](CCCNC(=N)N)C(=O)c1cc2ccccc2s1 | 6.88 | 12.9 | 
7 | N=C(N)NCCC[C@H](NC=O)C(=O)c1nc2ccccc2s1 | 4.38 |  | 
8 | CCOC(=O)c1csc(C(=O)[C@@H](CCCNC(=N)N)NC(=O)CNS(=O)(=O)c2ccc3ccccc3c2)n1 | 0.012 | 4 | 
9 | CCOC(=O)c1csc(C(=O)[C@H](CCCNC(=N)N)NS(=O)(=O)c2cccc3c(N(C)C)cccc23)n1 |  |  | IC50 (Bovine type 1 trypsin): 6.34 µM; IC50 (human alpha-thrombin): 42 µM

The next lines start with results.

Row | IC50 (Bovine type 1 trypsin; tested form: TFA) [µM] | IC50 (human alpha-thrombin; tested form: TFA) [µM] | SMILES | other results
10 | 50 | 26 | CN(C)c1cccc2c(S(=O)(=O)N[C@@H](CCCNC(=N)N)C(=O)N3CCCCC3C(=O)c3nccs3)cccc12 (stereo partly drawn) | 
11 | 7.74 | 40.1 | CN(C)c1cccc2c(S(=O)(=O)N[C@@H](CCCNC(=N)N)C(=O)N3CCCCC3CCCC(=O)c3nccs3)cccc12 (stereo partly drawn) | 
12 | 19 | 3.5 | CN(C)c1cccc2c(S(=O)(=O)N[C@@H](CCCNC(=N)N)C(=O)N3CCCCC3CCC(=O)c3nccs3)cccc12 (single isomer, unassigned) | 
